Assay results: PubChem BioAssay AID588458 (Sanford-Burnham Center for Chemical Genomics, 2011)
The list shows a part of the results, in another mix than the full data. Calls of active or inactive are those of the source. No stated cut-off is given here; in the data, active means inhibition above about 50%; inactive means the rest.

Sequences of proteins named here, by UniProt entry; tags and fusion partners are left off. Residues count along the entry.
UniProt P26358, 504-1616 limits assumed: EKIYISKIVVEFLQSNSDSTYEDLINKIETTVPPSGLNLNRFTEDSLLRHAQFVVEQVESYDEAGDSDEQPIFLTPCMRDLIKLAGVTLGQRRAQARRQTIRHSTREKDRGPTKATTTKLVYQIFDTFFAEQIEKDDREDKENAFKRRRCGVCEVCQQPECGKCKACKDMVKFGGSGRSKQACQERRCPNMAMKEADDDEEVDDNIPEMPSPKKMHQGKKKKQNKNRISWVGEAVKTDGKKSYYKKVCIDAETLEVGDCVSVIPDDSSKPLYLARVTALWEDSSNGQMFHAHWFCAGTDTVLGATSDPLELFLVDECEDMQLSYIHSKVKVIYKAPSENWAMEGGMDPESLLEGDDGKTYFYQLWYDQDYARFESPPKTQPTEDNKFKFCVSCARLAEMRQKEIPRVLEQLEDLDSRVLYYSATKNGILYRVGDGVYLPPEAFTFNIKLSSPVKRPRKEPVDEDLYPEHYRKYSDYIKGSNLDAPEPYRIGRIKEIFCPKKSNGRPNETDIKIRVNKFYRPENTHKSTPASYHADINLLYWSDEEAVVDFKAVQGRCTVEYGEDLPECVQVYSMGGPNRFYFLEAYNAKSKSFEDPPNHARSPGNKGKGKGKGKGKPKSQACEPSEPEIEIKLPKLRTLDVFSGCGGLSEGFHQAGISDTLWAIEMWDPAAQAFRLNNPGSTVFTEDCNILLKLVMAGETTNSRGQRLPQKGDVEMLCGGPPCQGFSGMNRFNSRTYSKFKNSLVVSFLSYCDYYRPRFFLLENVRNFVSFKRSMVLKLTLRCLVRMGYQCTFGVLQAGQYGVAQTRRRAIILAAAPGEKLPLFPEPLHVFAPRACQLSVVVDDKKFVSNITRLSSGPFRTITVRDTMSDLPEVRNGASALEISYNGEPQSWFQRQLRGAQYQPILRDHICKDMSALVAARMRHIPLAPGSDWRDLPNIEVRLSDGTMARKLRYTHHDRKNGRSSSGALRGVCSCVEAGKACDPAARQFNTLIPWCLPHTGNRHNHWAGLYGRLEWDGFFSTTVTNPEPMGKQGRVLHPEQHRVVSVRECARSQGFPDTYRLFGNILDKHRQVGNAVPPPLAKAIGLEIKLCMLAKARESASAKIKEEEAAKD

What follows are molecules tested against DNA (cytosine-5)-methyltransferase 1 (Homo sapiens) (UniProt P26358) (assay: inhibition of DNA methyltransferase DNMT1 – biochemical, molecular beacon, fluorescence, HinP1I cleavage, uHTS, primary screen (AID 588458)). Conditions: at 10 µM, active compounds read high.
For `CCCCn1nnnc1C(c1cc2ccccc2o1)N1CCC(n2c(=O)[nH]c3ccccc32)CC1` (stereo unspecified), the inhibition (reported as % activation of signal) was inactive: 48.1%.
`O=P1(N(CCCl)CCCl)SCCCS1` was tested, and the inhibition (reported as % activation of signal) was inactive: 0.22%.
`CCCCOc1ccc(C(=O)NCC2(N3CCOCC3)CCCCC2)cc1` was tested, and the inhibition (reported as % activation of signal) was inactive: 1.58%.
With `COc1ccc(NC2CCN(CCc3ccccc3)CC2)c(OC)c1` the inhibition (reported as % activation of signal) was inactive: -6.27%.
For `CCOC(=O)N1CCC(Nc2ccc(F)cc2)CC1`, the inhibition (reported as % activation of signal) was inactive: -0.05%.
With `CCOc1ccc(C)cc1CN(CCCl)CCCl` the inhibition (reported as % activation of signal) was inactive: -21.7%.
`CC(C)(C)n1nnnc1C(c1ccccc1)N1CCC(n2c(=O)[nH]c3ccccc32)CC1` (stereo unspecified) was tested, and the inhibition (reported as % activation of signal) was inactive: 2.21%.
With `O=C1CCN(Cc2ccccc2)CC1` the inhibition (reported as % activation of signal) was inactive: -5.45%.
With `CCCCn1nnnc1C(c1cccc2ccccc12)N1CCC(n2c(=O)[nH]c3ccccc32)CC1` (stereo unspecified) the inhibition (reported as % activation of signal) was inactive: -25.2%.
For `CN1CCN(CCOC(=O)C(O)(c2ccccc2)c2ccccc2)CC1`, the inhibition (reported as % activation of signal) was inactive: 0.9%.
`CC(C)c1ccc(C(=O)NCC2(N3CCOCC3)CCCCC2)cc1` was tested, and the inhibition (reported as % activation of signal) was inactive: 1.73%.
In the case of `COc1ccc(NC2CCN(C(=O)OC(C)(C)C)CC2)cc1`, the inhibition (reported as % activation of signal) is reported as inactive: 1.71%.
In the case of `COc1cc(C(=O)NCC2(N3CCCCC3)CCCCC2)ccc1OC(F)F`, the inhibition (reported as % activation of signal) is reported as inactive: -2.81%.
In the case of `O=C(NCC1(N2CCOCC2)CCCCC1)c1cc(=O)[nH]c2ccccc12`, the inhibition (reported as % activation of signal) is reported as inactive: 2.4%.
With `O=C(NCC1(N2CCCCC2)CCCCC1)c1cccc(C(F)(F)F)c1` the inhibition (reported as % activation of signal) was inactive: -0.84%.
For `O=C(NCC1(N2CCCCC2)CCCCC1)c1cccc([N+](=O)[O-])c1`, the inhibition (reported as % activation of signal) was inactive: 3.17%.
`CSc1ccc(C(=O)NCC2(N3CCOCC3)CCCCC2)cc1` was tested, and the inhibition (reported as % activation of signal) was inactive: -0.14%.
`CCN1CCC(Nc2ccc(Cl)cc2)CC1` was tested, and the inhibition (reported as % activation of signal) was inactive: 0.88%.
For `N#CC1(Nc2ccccc2)CCN(CCc2ccccc2)CC1`, the inhibition (reported as % activation of signal) was inactive: 0.61%.
`O=c1[nH]c2ccccc2n1C1CCN(C(c2ccccc2OC(F)(F)F)c2nnnn2C2CCCC2)CC1` (stereo unspecified) was tested, and the inhibition (reported as % activation of signal) was inactive: -10.1%.
In the case of `CC(C)(C)n1nnnc1C(c1ccccc1OC(F)(F)F)N1CCC(n2c(=O)[nH]c3ccccc32)CC1` (stereo unspecified), the inhibition (reported as % activation of signal) is reported as inactive: -15.5%.
`O=C(NCC1(N2CCCCC2)CCCCC1)c1ccc(OC(F)F)cc1` was tested, and the inhibition (reported as % activation of signal) was inactive: -2.94%.
With `Cc1ccc(C(=O)NCC2(N(C)C)CCCCC2)o1` the inhibition (reported as % activation of signal) was inactive: 0.69%.
With `CCCOc1ccc(C(=O)NCC2(N(C)C)CCCCC2)cc1OC` the inhibition (reported as % activation of signal) was inactive: 0.32%.
`COc1ccc(C(c2nnnn2C2CCCC2)N2CCC(n3c(=O)[nH]c4ccccc43)CC2)cc1` (stereo unspecified) was tested, and the inhibition (reported as % activation of signal) was inactive: -1.16%.
For `O=C(NCC1(N2CCCCC2)CCCCC1)c1cncc(Br)c1`, the inhibition (reported as % activation of signal) was inactive: -0.37%.
In the case of `CN1CCC(Nc2cccc(F)c2)CC1`, the inhibition (reported as % activation of signal) is reported as inactive: -0.13%.
`CCCCn1nnnc1C(c1ccnc2ccccc12)N1CCC(n2c(=O)[nH]c3ccccc32)CC1` (stereo unspecified) was tested, and the inhibition (reported as % activation of signal) was inactive: -7.24%.
`COc1cc(OC)c(C(=O)NCC2(N(C)C)CCCCC2)cc1OC` was tested, and the inhibition (reported as % activation of signal) was inactive: -0.63%.
`CCC(c1nnnn1C(C)(C)C)N1CCC(n2c(=O)[nH]c3ccccc32)CC1` (stereo unspecified) was tested, and the inhibition (reported as % activation of signal) was inactive: -0.49%.
`O=C(NCC1(N2CCOCC2)CCCCC1)c1cc(F)c(F)cc1Cl` was tested, and the inhibition (reported as % activation of signal) was inactive: 6.04%.
With `COc1ccc(CN(CCCl)CCCl)cc1Cl` the inhibition (reported as % activation of signal) was inactive: -9.87%.
In the case of `CN(C)c1cccc(C(=O)NCC2(N3CCCCC3)CCCCC2)c1`, the inhibition (reported as % activation of signal) is reported as inactive: 7.14%.
In the case of `CCCCn1nnnc1C(c1ccccc1OC(F)(F)F)N1CCC(n2c(=O)[nH]c3ccccc32)CC1` (stereo unspecified), the inhibition (reported as % activation of signal) is reported as inactive: -20.5%.
`CC(C)c1ccc(NC2CCN(C(=O)OC(C)(C)C)CC2)cc1` was tested, and the inhibition (reported as % activation of signal) was inactive: -0.53%.
For `CCCCn1nnnc1C(c1cccc(OC)c1OC)N1CCC(n2c(=O)[nH]c3ccccc32)CC1` (stereo unspecified), the inhibition (reported as % activation of signal) was inactive: -6.07%.
In the case of `O=C(OC1CN2CCC1CC2)C1c2ccccc2C=Cc2ccccc21` (stereo unspecified), the inhibition (reported as % activation of signal) is reported as inactive: 0.18%.
`O=c1[nH]c2ccccc2n1C1CCN(C(c2cccs2)c2nnnn2C2CCCC2)CC1` (stereo unspecified) was tested, and the inhibition (reported as % activation of signal) was inactive: 0.96%.
In the case of `N/C(=N\O)c1c(N)no[n+]1[O-]`, the inhibition (reported as % activation of signal) is reported as inactive: 1.93%.
With `COc1cccc(C(c2nnnn2C(C)(C)C)N2CCC(n3c(=O)[nH]c4ccccc43)CC2)c1OC` (stereo unspecified) the inhibition (reported as % activation of signal) was inactive: -3.71%.
In the case of `CCOC(=O)N1CCC(Nc2ccc(C)cc2)CC1`, the inhibition (reported as % activation of signal) is reported as inactive: -0.66%.
`COc1ccc(C(=O)NCC2(N3CCOCC3)CCCCC2)cc1OC` was tested, and the inhibition (reported as % activation of signal) was inactive: 2.3%.
For `O=c1[nH]c2ccccc2n1C1CCN(C(c2ccnc3ccccc23)c2nnnn2C2CCCC2)CC1` (stereo unspecified), the inhibition (reported as % activation of signal) was inactive: -13.2%.
With `O=c1[nH]c2ccccc2n1C1CCN(C(c2cccs2)c2nnnn2C2CCCCC2)CC1` (stereo unspecified) the inhibition (reported as % activation of signal) was inactive: -4.48%.
In the case of `O=C(NCC1(N2CCOCC2)CCCCC1)c1cc(Br)ccc1Cl`, the inhibition (reported as % activation of signal) is reported as inactive: 1.46%.
With `CCCCn1nnnc1C(c1ccccc1)N1CCC(n2c(=O)[nH]c3ccccc32)CC1` (stereo unspecified) the inhibition (reported as % activation of signal) was inactive: -0.94%.
With `COc1cc(C(=O)NCC2(N3CCOCC3)CCCCC2)cc(OC)c1C` the inhibition (reported as % activation of signal) was inactive: 6.77%.
For `CC(C)(C)n1nnnc1C(c1cccc2ccccc12)N1CCC(n2c(=O)[nH]c3ccccc32)CC1` (stereo unspecified), the inhibition (reported as % activation of signal) was inactive: -20%.
`c1ccc(CN2CCC(Nc3ccccc3)CC2)cc1` was tested, and the inhibition (reported as % activation of signal) was inactive: -1.12%.
`Cc1cc(N(CCCl)CCCl)ccc1C=O` was tested, and the inhibition (reported as % activation of signal) was inactive: -2.07%.
For `O=c1[nH]c2ccccc2n1C1CCN(C(c2ccccc2)c2nnnn2C2CCCC2)CC1` (stereo unspecified), the inhibition (reported as % activation of signal) was inactive: -5.03%.
`CCCN1CCC(Nc2cc(OC)cc(OC)c2)CC1` was tested, and the inhibition (reported as % activation of signal) was inactive: -5.96%.
With `CN(C)C1(CNC(=O)c2cccc(C#N)c2)CCCCC1` the inhibition (reported as % activation of signal) was inactive: 1.4%.
With `CC(C)(C)OC(=O)N1CCC(N(C(=O)c2ccccc2)c2ccc(Cl)cc2)CC1` the inhibition (reported as % activation of signal) was inactive: 3.16%.
In the case of `N#Cc1ccc(C(=O)NCC2(N3CCCCC3)CCCCC2)cc1`, the inhibition (reported as % activation of signal) is reported as inactive: 0.02%.
In the case of `O=C(NCC1(N2CCCCC2)CCCCC1)c1ccco1`, the inhibition (reported as % activation of signal) is reported as inactive: 3.15%.
For `Cn1c(=O)[nH]cc(N(CCCl)CCCl)c1=O`, the inhibition (reported as % activation of signal) was inactive: -2.3%.
With `CN(C)c1ccc(C(=O)NCC2(N3CCCCC3)CCCCC2)cc1` the inhibition (reported as % activation of signal) was inactive: -2.74%.
With `Cc1ccccc1NC1(C#N)CCN(Cc2ccccc2)CC1` the inhibition (reported as % activation of signal) was inactive: -6.37%.
With `CC(C)(C)n1nnnc1C(c1ccnc2ccccc12)N1CCC(n2c(=O)[nH]c3ccccc32)CC1` (stereo unspecified) the inhibition (reported as % activation of signal) was inactive: 3.03%.
In the case of `CCN1CCC(Nc2cccc(F)c2)CC1`, the inhibition (reported as % activation of signal) is reported as inactive: 4.66%.
With `COc1ccc(C(c2nnnn2C2CCCCC2)N2CCC(n3c(=O)[nH]c4ccccc43)CC2)cc1` (stereo unspecified) the inhibition (reported as % activation of signal) was inactive: -5.25%.
With `Cc1ccc(NC2(C#N)CCN(Cc3ccccc3)CC2)cc1` the inhibition (reported as % activation of signal) was inactive: -6.14%.
For `Cc1ccc(C(=O)NCC2(N3CCCCC3)CCCCC2)o1`, the inhibition (reported as % activation of signal) was inactive: -0.31%.
With `Fc1ccccc1NC1CCN(Cc2ccccc2)CC1` the inhibition (reported as % activation of signal) was inactive: 2.74%.
For `O=c1[nH]c2ccccc2n1C1CCN(C(c2ccnc3ccccc23)c2nnnn2C2CCCCC2)CC1` (stereo unspecified), the inhibition (reported as % activation of signal) was inactive: -8.02%.
`COc1cc(OC)cc(C(=O)NCC2(N3CCCCC3)CCCCC2)c1` was tested, and the inhibition (reported as % activation of signal) was inactive: -1.31%.
`CC(=O)N(c1ccccc1)C1CCNCC1` was tested, and the inhibition (reported as % activation of signal) was inactive: 0.94%.
In the case of `COc1cccc(C(c2nnnn2C2CCCCC2)N2CCC(n3c(=O)[nH]c4ccccc43)CC2)c1OC` (stereo unspecified), the inhibition (reported as % activation of signal) is reported as inactive: -5.78%.
`CCC(c1nnnn1C1CCCCC1)N1CCC(n2c(=O)[nH]c3ccccc32)CC1` (stereo unspecified) was tested, and the inhibition (reported as % activation of signal) was inactive: -2.73%.
`CN1CCC(Nc2ccc(Cl)cc2)CC1` was tested, and the inhibition (reported as % activation of signal) was inactive: -0.8%.
`CCC(CO)(C(=O)OC1CN2CCC1CC2)c1ccccc1` (stereo unspecified) was tested, and the inhibition (reported as % activation of signal) was inactive: 5.26%.
For `COc1cc(OC)cc(C(=O)NCC2(N3CCOCC3)CCCCC2)c1`, the inhibition (reported as % activation of signal) was inactive: -2.27%.
With `COc1cccc(C(c2nnnn2C2CCCC2)N2CCC(n3c(=O)[nH]c4ccccc43)CC2)c1OC` (stereo unspecified) the inhibition (reported as % activation of signal) was inactive: -7.24%.
With `COc1cccc(C(=O)N(c2cc(C)cc(C)c2)C2CCN(C(=O)OC(C)(C)C)CC2)c1` the inhibition (reported as % activation of signal) was inactive: -1.07%.
With `CCCOc1ccc(C(=O)NCC2(N(C)C)CCCCC2)cc1` the inhibition (reported as % activation of signal) was inactive: -0.41%.
For `O=c1[nH]c2ccccc2n1C1CCN(C(c2cc3ccccc3o2)c2nnnn2C2CCCC2)CC1` (stereo unspecified), the inhibition (reported as % activation of signal) was inactive: -14.1%.
For `CC(C)(C)OC(=O)N1CCC(Nc2ccccc2)CC1`, the inhibition (reported as % activation of signal) was inactive: 10.8%.
For `O=C(O)C1(Nc2ccccc2)CCN(Cc2ccccc2)CC1`, the inhibition (reported as % activation of signal) was inactive: 4.45%.
In the case of `CCOc1ncccc1C(=O)NCC1(N2CCOCC2)CCCCC1`, the inhibition (reported as % activation of signal) is reported as inactive: -0.01%.
With `CN1CCC(Nc2ccc(F)c(Cl)c2)CC1` the inhibition (reported as % activation of signal) was inactive: -1.09%.
